From publication PMC9581132, “Cross clinical-experimental-computational qualification of in silico drug trials on human cardiac purkinje cells for proarrhythmia risk prediction” (Frontiers in Toxicology, 2022) come the findings set out here.

Amino acid sequences for entries named in this document (tags omitted). A change or cut given only in a name is not applied to a line headed by its entry.
UniProt Q13936, whole entry: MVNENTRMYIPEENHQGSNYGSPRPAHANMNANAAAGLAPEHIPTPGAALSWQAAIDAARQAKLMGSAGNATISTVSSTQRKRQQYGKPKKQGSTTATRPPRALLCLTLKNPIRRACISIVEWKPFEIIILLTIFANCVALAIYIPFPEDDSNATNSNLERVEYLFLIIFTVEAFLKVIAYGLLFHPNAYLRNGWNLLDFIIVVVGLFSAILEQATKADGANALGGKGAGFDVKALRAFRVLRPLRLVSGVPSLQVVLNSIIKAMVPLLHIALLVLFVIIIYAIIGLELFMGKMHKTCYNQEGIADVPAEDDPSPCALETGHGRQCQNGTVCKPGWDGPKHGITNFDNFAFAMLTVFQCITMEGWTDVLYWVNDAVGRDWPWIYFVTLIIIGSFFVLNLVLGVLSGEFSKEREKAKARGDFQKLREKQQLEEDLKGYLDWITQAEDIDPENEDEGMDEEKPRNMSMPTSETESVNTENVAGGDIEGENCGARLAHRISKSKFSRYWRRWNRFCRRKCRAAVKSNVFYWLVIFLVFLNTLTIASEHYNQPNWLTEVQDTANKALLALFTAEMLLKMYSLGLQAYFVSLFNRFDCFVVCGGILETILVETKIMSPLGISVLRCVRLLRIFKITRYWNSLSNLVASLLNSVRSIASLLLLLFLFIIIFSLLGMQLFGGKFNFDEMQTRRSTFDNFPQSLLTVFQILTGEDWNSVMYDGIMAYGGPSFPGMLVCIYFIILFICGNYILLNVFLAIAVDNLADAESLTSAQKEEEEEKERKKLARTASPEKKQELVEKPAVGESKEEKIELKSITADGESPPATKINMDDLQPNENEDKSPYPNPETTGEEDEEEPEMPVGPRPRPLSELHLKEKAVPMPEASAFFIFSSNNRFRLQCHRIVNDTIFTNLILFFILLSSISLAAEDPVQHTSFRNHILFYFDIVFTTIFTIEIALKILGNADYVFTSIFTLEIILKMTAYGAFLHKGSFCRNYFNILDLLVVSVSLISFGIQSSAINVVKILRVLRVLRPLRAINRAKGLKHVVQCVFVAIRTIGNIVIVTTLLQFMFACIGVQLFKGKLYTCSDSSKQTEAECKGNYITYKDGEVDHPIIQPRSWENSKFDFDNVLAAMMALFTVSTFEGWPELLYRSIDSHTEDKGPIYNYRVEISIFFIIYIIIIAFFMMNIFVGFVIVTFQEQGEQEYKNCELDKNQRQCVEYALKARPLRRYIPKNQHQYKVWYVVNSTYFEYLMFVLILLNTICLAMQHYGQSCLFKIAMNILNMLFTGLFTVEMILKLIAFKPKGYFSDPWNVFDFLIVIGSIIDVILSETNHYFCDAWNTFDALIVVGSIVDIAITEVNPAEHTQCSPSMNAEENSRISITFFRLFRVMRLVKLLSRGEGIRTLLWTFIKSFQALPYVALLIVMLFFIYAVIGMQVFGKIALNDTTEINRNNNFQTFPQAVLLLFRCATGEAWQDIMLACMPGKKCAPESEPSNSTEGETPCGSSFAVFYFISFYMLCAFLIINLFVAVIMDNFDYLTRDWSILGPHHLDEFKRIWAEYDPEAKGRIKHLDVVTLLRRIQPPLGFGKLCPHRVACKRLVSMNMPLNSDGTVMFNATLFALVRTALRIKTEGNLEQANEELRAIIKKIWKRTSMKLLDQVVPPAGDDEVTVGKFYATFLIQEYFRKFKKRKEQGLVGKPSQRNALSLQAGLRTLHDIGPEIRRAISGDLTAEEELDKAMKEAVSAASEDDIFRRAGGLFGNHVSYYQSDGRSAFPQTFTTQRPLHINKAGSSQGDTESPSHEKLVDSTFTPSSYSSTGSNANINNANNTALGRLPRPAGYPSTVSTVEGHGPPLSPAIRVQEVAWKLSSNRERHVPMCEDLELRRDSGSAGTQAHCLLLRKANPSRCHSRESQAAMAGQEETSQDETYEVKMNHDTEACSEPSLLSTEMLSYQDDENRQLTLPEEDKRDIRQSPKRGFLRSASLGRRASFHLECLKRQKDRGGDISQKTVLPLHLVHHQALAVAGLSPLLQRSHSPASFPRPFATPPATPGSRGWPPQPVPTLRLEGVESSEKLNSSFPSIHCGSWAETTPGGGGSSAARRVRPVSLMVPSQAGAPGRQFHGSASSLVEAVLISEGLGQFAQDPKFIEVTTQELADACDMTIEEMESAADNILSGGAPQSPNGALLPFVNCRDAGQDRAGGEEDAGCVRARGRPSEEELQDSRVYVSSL
UniProt Q12809: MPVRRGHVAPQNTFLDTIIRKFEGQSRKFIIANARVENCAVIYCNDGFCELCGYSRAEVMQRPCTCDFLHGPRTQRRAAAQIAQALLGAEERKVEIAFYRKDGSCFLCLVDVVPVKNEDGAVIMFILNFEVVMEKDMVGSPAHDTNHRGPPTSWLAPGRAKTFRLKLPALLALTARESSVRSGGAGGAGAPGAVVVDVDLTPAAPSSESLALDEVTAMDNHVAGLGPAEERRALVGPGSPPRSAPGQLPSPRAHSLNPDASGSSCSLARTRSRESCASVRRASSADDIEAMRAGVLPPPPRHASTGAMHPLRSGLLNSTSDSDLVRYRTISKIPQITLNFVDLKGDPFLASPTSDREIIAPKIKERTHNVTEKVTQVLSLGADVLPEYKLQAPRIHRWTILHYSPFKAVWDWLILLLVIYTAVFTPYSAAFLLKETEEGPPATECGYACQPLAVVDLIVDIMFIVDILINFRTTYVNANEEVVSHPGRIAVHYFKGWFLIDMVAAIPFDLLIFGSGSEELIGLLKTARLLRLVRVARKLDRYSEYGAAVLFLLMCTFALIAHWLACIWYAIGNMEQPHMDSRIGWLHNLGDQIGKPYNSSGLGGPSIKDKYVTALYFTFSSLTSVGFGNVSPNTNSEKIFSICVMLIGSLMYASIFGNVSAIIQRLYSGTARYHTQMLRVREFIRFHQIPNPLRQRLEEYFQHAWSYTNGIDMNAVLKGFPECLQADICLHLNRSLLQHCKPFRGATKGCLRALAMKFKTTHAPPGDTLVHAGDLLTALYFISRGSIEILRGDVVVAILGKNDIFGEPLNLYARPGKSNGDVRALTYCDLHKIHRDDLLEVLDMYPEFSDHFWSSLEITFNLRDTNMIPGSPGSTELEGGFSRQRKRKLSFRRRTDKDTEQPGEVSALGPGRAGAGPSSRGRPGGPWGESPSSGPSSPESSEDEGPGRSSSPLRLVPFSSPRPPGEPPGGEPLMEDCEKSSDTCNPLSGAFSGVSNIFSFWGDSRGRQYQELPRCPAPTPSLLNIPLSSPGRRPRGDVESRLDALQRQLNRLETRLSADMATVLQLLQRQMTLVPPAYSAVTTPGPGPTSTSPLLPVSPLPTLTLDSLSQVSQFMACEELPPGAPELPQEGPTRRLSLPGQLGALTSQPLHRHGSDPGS

Holding throughout (assay type): cell-based
The target in one assay is T1, hKv4.3 (Homo sapiens, UniProt Q9UK17).
T1 construct: expressed in transfected cells; host or cells: HEK-293
T1 sequence (Q9UK17 1-655): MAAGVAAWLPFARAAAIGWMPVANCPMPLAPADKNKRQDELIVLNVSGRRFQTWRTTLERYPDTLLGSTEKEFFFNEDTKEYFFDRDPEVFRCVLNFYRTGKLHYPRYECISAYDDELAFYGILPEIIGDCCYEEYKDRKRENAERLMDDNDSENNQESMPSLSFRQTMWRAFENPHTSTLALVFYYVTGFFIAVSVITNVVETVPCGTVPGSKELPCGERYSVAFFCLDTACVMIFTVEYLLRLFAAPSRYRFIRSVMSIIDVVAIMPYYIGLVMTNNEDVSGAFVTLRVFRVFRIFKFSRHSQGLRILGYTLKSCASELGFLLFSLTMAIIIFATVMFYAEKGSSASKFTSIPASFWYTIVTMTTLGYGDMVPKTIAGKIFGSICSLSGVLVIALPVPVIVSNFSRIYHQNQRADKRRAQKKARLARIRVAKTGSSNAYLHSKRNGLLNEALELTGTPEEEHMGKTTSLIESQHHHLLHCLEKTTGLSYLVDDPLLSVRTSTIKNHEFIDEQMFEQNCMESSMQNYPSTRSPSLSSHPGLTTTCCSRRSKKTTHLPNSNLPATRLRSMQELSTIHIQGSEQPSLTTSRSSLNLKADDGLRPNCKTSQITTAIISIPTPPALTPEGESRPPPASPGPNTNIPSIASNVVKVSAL
Description: Automated patch clamp (QPatch), transient outward K+ current Ito. Particulars: room temperature; dash = no effect or IC50 much higher than tested concentrations.

Another assay addresses T2, hCav1.2 (Homo sapiens, UniProt Q13936).
T2 construct: expressed in transfected cells; host or cells: CHO
Description: Automated patch clamp (QPatch), L-type Ca2+ current ICaL. Particulars: room temperature; dash = no effect or IC50 much higher than tested concentrations. (In general: Patch clamp records ionic current or voltage across a cell membrane.)

In a further assay the target is T3, hERG (Homo sapiens, UniProt Q12809).
T3 construct: host or cells: CHO (hERG-CHO) and HEK-293 stably transfected with hERG cDNA
Description: Automated patch clamp (QPatch), hERG tail current IKr. The following applies: room temperature.

Molecule `Cc1nc2n(c(=O)c1CCN1CCC(c3noc4cc(F)ccc34)CC1)CCCC2` gave a half-maximal inhibitory concentration (IC50) against hKv4.3 of 43 µM. Take `CC(C)COCC(CN(Cc1ccccc1)c1ccccc1)N1CCCC1` (stereo not drawn) [Bepridil]: the IC50 at hCav1.2 came to 6 µM; against hERG, 190 nM.

Usually IC50 stands for the midpoint of a concentration-inhibition curve. Read a high IC50 as lower potency.
